Results taken from publication PMC11357161, “Phytochemical Analysis, Biological Activities, and Docking of Phenolics from Shoot Cultures of Hypericum perforatum L. Transformed by Agrobacterium rhizogenes” (Molecules, 2024).
Marks after values point to notes of the source that are not given here.

Chains of the proteins cited; added tags and fusions are not shown. Residues count along the entry.
UniProt O42275, 24-633: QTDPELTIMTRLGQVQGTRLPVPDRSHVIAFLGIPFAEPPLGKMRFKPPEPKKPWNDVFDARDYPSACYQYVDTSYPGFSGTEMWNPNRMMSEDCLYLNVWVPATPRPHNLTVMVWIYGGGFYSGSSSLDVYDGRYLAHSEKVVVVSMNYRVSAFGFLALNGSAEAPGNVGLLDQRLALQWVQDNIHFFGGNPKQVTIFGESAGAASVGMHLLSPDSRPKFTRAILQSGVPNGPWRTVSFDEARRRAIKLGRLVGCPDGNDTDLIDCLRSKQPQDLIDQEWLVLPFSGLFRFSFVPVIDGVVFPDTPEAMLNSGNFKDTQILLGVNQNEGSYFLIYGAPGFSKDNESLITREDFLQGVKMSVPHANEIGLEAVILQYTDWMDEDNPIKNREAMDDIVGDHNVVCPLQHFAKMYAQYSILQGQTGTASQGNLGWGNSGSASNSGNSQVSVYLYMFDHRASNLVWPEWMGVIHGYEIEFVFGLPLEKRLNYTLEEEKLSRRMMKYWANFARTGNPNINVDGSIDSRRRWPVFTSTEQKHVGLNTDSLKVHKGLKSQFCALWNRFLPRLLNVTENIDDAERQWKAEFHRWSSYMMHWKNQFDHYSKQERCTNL
UniProt P06276, 29-602, species assumed: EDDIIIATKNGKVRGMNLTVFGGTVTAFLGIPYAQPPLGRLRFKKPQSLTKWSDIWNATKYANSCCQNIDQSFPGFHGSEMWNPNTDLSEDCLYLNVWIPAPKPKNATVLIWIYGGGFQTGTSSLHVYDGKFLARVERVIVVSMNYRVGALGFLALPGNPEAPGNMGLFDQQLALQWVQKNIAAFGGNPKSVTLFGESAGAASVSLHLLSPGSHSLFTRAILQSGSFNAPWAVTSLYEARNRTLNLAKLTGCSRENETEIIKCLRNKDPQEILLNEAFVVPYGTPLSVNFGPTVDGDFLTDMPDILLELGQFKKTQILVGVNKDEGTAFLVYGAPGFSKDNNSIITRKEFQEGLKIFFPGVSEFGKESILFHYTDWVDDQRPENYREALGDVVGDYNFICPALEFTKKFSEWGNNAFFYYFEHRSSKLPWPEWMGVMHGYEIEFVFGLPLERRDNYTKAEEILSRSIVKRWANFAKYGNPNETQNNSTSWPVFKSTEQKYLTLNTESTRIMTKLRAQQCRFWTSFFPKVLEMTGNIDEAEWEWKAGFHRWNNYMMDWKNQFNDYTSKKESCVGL

What was measured:
[1] = molecular target: acetylcholinesterase (AChE) (Electrophorus electricus, UniProt O42275); test: AChE inhibitory activity in vitro; format: biochemical; conditions: concentration that inhibits 50% of enzyme activity; mean ± SD, three replicates
Description: (§1) Shoot methanolic extracts were evaporated in a freeze-dryer (Labconco, Kansas City, MO, USA), and dry extracts were dissolved in 50% dimethyl sulfoxide. The stock solutions of TSL and NTS extracts were serially diluted for performing enzyme-inhibitory assays. The protocols for MAO-A, AChE, BChE, TYR, α-AM, α-GL, PL, and CHE inhibitory activities were presented in our previous studies. […] Three replicates were used for all enzyme-inhibitory tests.

[2] = molecular target: butyrylcholinesterase (BChE) (Homo sapiens, UniProt P06276); test: BChE inhibitory activity in vitro; format: biochemical; conditions: concentration that inhibits 25% of enzyme activity; mean ± SD, three replicates
Description: as §1

CNC(=O)Oc1ccc2c(c1)[C@]1(C)CCN(C)[C@@H]1N2C [Eserine]
AChE (IC50) [1]: 11.97 ± 0.64 ^a µg·mL^−1
BChE (IC25) [2]: 0.10 ± 0.02 ^a µg·mL^−1
